Laboratory results published in patent publication US20260256870A1, “SKIN COMPOSITION” (Eaderm Co., Ltd., priority 2019, published 2026).

What was measured:
COL17A1 = COL17A1 expression in human epidermal keratinocytes by high content imaging (HCS); format: cell-based; conditions: Table 3; anticancer drugs and molecularly targeted drugs
Protocol: The present inventors further searched for substances that induce or maintain the expression of COL17A1. Human epidermal keratinocytes were seeded in 384-well plates, cultured for 48 hours after addition of reagents, immunostained with an anti-COL17A1 antibody and a fluorescently labeled secondary antibody, and then the fluorescence intensity per cell was detected using a high content imaging system (HCS: High Content Screening). In addition to cell counting with DAPI, the expression level of COL17A1 was quantified.

[1] = tested on: skin damage induced by anticancer drugs; experiment: TEWL after EGF receptor inhibitor administration (Example 9); conditions: control mice about 18 months old, 50 mg/kg/day intraperitoneal, day 7 (FIG. 18)
Source text: A 0.5% methylcellulose solution of the solvent was similarly administered to the control non-treated group. […] Measurements were taken at specific sites on the back of the mice (two sites symmetrically located on the left side and right side from the center of the spine) using Tewameter TN300 (Courage+Khazaka, Integral Corporation, Germany).

COc1cc2ncnc(Nc3ccc(F)c(Cl)c3)c2cc1OCCCN1CCOCC1 [Gefitinib]
COL17A1 expression level (control ratio) (COL17A1): 0.76
TEWL [1]: significantly increased
